Measurements as given in patent US20230407304A1, “USE OF MICRORNA INHIBITION TO PREVENT AND TREAT OSTEOARTHRITIS AND OTHER INFLAMMATORY DISEASES” (VIRGINIA COMMONWEALTH UNIVERSITY, priority 2020, published 2023).

System: rat articular chondrocytes (rArCs)
Test: WNT/β-catenin agonist or antagonist treatment of rArCs with or without IL-1β
Format: cell-based

Structure (SMILES) | MMP-13 production compared to control groups | total DNA | PGE2 production
Cn1ncnc2c(=O)n(C)c(=O)nc1-2 [PKF, PKF-118-310] | no difference | but not 0.1 μM or 0.5 μM PKF | –
[Cl-].[Li+] [LiCl, lithium chloride] | – | – | A similar trend was seen
